From ChEMBL document CHEMBL5338738, “Discovery of Novel Sesquiterpene Lactone Derivatives as Potent PKM2 Activators for the Treatment of Ulcerative Colitis” (J Med Chem, 2023)

Sequences of proteins named here, by UniProt entry; tags and fusion partners are left off.
UniProt P14618, whole entry, looked up: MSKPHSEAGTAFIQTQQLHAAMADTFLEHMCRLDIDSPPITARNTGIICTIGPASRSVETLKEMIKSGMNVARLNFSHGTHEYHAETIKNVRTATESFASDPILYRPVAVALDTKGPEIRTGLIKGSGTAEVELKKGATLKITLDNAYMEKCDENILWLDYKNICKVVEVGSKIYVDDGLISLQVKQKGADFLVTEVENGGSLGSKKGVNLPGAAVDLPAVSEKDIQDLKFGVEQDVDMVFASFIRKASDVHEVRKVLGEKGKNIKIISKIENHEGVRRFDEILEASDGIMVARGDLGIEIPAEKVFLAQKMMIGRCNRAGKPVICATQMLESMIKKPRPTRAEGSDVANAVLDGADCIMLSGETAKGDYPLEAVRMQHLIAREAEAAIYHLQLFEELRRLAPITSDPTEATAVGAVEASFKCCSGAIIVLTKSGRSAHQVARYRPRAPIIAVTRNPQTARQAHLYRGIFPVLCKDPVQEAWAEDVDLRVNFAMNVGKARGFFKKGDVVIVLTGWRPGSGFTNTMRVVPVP

Biological target: Pyruvate kinase PKM (Homo sapiens, UniProt P14618)
Assay: Activation of PKM2 (unknown origin) at 3 uM incubated for 30 mins relative to control

Row | Structure (SMILES) | fold change (FC)
1 | C=C1C(=O)O[C@@H]2/C=C(\C)CCC[C@H](C)CC[C@@H]12 | > 2
2 | C=C1C(=O)O[C@@H]2/C=C(\C)CC/C=C(/COC(=O)[C@@H](NC(=O)[C@@H](N)[C@@H](C)CC)C(C)C)CC[C@@H]12 | > 2
3 | C=C1C(=O)O[C@H]2[C@H]1CC[C@@]1(C)[C@@H](CC[C@@]3(C)O[C@@H]23)C1(F)F | > 2
4 | C=C1C(=O)O[C@@H]2/C=C(\C)CC/C=C(/CO)CC[C@@H]12 | > 2
5 | C=C1C(=O)O[C@@H]2/C=C(\C)CC[C@H]3O[C@@]3(C)CC[C@@H]12 | > 2
6 | C=C1C(=O)O[C@@H]2/C=C(\C)CC/C=C(/C(=O)OC)CC[C@@H]12 | > 2
7 | C=C1C(=O)O[C@@H]2C[C@@H](C)CC[C@H]3O[C@@]3(C)CC[C@@H]12 | > 2
8 | C=C1C(=O)O[C@@H]2/C=C(\C)CC/C=C(/CF)CC[C@@H]12 | > 2
9 | C=C1C(=O)O[C@@H]2/C=C(\C)CC/C=C(/C(=O)OCC)CC[C@@H]12 | > 2
10 | C=C1C(=O)O[C@@H]2/C=C(\C)CC/C=C(\C)CC[C@@H]12 [COSTUNOLIDE] | > 2
11 | C=C1C(=O)O[C@H]2[C@H]1CC[C@@H](C)CCC[C@@]1(C)O[C@@H]21 | > 2
12 | C=C1C(=O)O[C@@H]2/C=C(\C)CC/C=C(/C(F)F)CC[C@@H]12 | > 2
13 | C=C1C(=O)O[C@@H]2/C=C(\C)CC[C@H]3C(F)(F)[C@@]3(C)CC[C@@H]12 | > 2
14 | C=C1C(=O)O[C@@H]2/C=C(\C)CC/C=C(/COC(=O)[C@@H](N)C(C)C)CC[C@@H]12 | > 2
